Experimental data reported in PMC4861662 (ChemMedChem, 2016).

Assay: Phase solubility diagram
Settings: container M2C4; 20 mM sodium phosphate buffered D2O, pD 7.4, rt; Gel = gel formed

SMILES: CCCCc1oc2ccccc2c1C(=O)c1cc(I)c(OCCN(CC)CC)c(I)c1 [Amiodarone]
- Initial slope of the PSD: Gel
